We go through 1 substance from patent US11304967B2, “Compounds and compositions for improving power output and oxygen efficiency” (dated 2022).

The subject of one assay is elderly subjects. Put plainly: Timed Up & Go (TUG) mobility assessment (Example 4). To be noted: four weeks, treatment group vs placebo group.
In assay [1] the test system is horse skeletal muscle cells (myoblasts). In words: High Resolution Oxygraphy of mitochondrial respiration (Example 5). The settings on record: 24 h pretreatment, 40 μg/mL.
The subject of a further assay is resistance athletes. In words: Peak force output in barbell squat, open-label pre-posttest study (Example 3).
Another assay concerns interval athletes. In words: Anaerobic capacity: total work over 30 seconds in interval athletes (Example 2).
The test system of another assay is physically trained men. In words: 10 minute cycling time-trial after pre-exhaustion, 4 weeks supplementation (Example 1). The settings on record: for VO2/Power ratio / Relative power / Average VO2 / Estimated VO2 max / Absolute power: Test 2 (post treatment), 500 mg daily 4 weeks, n = 19; for VO2/Power ratio: Test 1 pre treatment 0.171; for Relative power: Test 1 pre treatment 4.03; for Average VO2: Test 1 pre treatment 51.09; for Estimated VO2 max: Test 1 pre treatment 57.88; for Absolute power: Test 1 pre treatment 298.04.

Take hesperitin-7-rutinoside: the “Time to perform TUG exercise” value with elderly subjects was “significantly faster”. In addition, in assay [1] (oligomycin-induced), the “Proton flow in the mitochondria” value is “increased”. The “Mitochondrial respiration capacity (routine, Flow, ETS max)” value in assay [1] (versus vehicle) was “clear and significant effect”. Besides, the Peak force output result in the assay with resistance athletes (after 4 weeks of supplementation compared to baseline, all subjects) was “significantly higher”. Further, the “Increase of peak force output compared to baseline” value with resistance athletes (example 3, as restated) was found to be 36%. In addition, the “Δ anaerobic capacity, treatment group compared to control group” value in the assay with interval athletes (after 4 weeks of treatment) was found to be 3.2 fold. The “Δ anaerobic capacity (difference after 4 weeks of treatment)” value in the assay with interval athletes (interval athletes, work over 30 seconds, control group 354.6 W) came out at 1146.8 W. For the same substance, the “Increase of absolute power” value in the assay with physically trained men (4 weeks of supplementation, trained athletes, within treatment group) was determined as 5%. Also, in the assay on physically trained men, the VO2/Power ratio result was “significantly decreased”, the Relative power entry is reported as “significantly increased”, the “Average VO2” value is recorded as “did not differ significantly” and the “Estimated VO2 max” value is reported as “did not differ significantly”. In the assay on physically trained men, the Absolute power result is given as “significantly increased”. Also, in the assay with physically trained men (listed as Hesperidin), the VO2/Power ratio came to 0.166, the Relative power turned out to be 4.23 W/kg, the “Average VO2” value worked out at 52.01 mL/min/kg and the “Estimated VO2 max” value was 57.87 mL/min/kg. In addition, the Absolute power in the assay on physically trained men (listed as Hesperidin) was determined as 312.98 W.
